Read-outs that look alike come from different tables or passages of the source.
Key:
Aβ(10-43) [1] = target: T1, Aβ(10-43) (Homo sapiens, UniProt P05067); test: Inhibition of [^14 C]Chrysamine G binding to Aβ(10-43); details: Congo red or the series
AD brain = test: Total [^14 C]Chrysamine G binding in AD brain homogenates
[2] = Tissue levels and metabolism of [^14 C]Chrysamine G in mice; details: 15 min after i.v. injection
[3] = mouse, in vivo, iv
control brain = test: Total [^14 C]Chrysamine G binding in control brain homogenates
Aβ(10-43) [4] = target: T1, Aβ(10-43)
Down's syndrome brain = test: [^14 C]Chrysamine G binding in Down's syndrome brain homogenates; set-up: species or system human; details: two patients, ages 23 and 51

By UniProt entry, the sequences of proteins in these tests, tags left out. Residues count along the entry.
UniProt P05067, 681-714: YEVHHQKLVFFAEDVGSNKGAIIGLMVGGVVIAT

O=C(O)c1cc(N=Nc2ccc(-c3ccc(N=Nc4ccc(O)c(C(=O)O)c4)cc3)cc2)ccc1O [Chrysamine G, 4,4'-bis(3-carboxy-4-hydroxyphenylazo)-biphenyl]
potency/affinity relative to another compound (Aβ(10-43) [1]): several fold greater than the affinity of Congo red
total binding as ratio to cerebellum (CBR), Head of Caudate (AD brain; n = 7, ± SEM, p < 0.04): 1.76 ± .31 CBR
total binding as ratio to cerebellum (CBR), Frontal Pole (AD brain; n = 10, ± SEM, p < 0.004): 1.87 ± .25 CBR
total binding as ratio to cerebellum (CBR), Inferior Parietal (AD brain; n = 11, ± SEM, p < 0.001): 1.93 CBR
total binding as ratio to cerebellum (CBR), Superior/Middle Frontal (AD brain; n = 11, ± SEM, p < 0.001): 1.84 ± .18 CBR
total binding as ratio to cerebellum (CBR), Superior Temporal (AD brain; n = 11, ± SEM, p < 0.002): 1.63 ± .17 CBR
total binding as ratio to cerebellum (CBR), Occipital (AD brain; n = 11, ± SEM, p < 0.02): 1.44 ± .20 CBR
brain/kidney ratio [2]: ~0.5
brain/blood ratio ([3]; 15 min): over 10:1
brain/blood ratio ([3]; 35 min): ~20:1
total binding as ratio to cerebellum (CBR), Head of Caudate (control brain; n = 4, ± SEM): 0.95 ± .04 CBR
total binding as ratio to cerebellum (CBR), Frontal Pole (control brain; n = 6, ± SEM): 0.87 ± .04 CBR
total binding as ratio to cerebellum (CBR), Inferior Parietal (control brain; n = 8, ± SEM): 0.90 ± .08 CBR
total binding as ratio to cerebellum (CBR), Occipital (control brain; n = 8, ± SEM): 0.77 ± .13 CBR
total binding as ratio to cerebellum (CBR), Superior Temporal (control brain; n = 8, ± SEM): 0.86 ± .08 CBR
total binding as ratio to cerebellum (CBR), Superior/Middle Frontal (control brain; n = 8, ± SEM): 0.73 ± .02 CBR
kon (Aβ(10-43) [4]; read-out: association rate constant (k1)): 37500 M⁻¹ s⁻¹
koff (Aβ(10-43) [4]; read-out: dissociation rate constant (k-1)): 0.0126 s⁻¹
binding in Down's syndrome brain relative to control (Down's syndrome brain): above the control range

From patent US6114175A, “Compound for the antemortem diagnosis of Alzheimer's Disease and in vivo imaging and prevention of amyloid deposition” (priority 1998, dated 2000)
